By UniProt entry, the sequences of proteins in these tests, tags left out. Where a name states a change or a piece, a line headed by the entry shows the natural chain unless it says otherwise.
UniProt P14416, whole entry: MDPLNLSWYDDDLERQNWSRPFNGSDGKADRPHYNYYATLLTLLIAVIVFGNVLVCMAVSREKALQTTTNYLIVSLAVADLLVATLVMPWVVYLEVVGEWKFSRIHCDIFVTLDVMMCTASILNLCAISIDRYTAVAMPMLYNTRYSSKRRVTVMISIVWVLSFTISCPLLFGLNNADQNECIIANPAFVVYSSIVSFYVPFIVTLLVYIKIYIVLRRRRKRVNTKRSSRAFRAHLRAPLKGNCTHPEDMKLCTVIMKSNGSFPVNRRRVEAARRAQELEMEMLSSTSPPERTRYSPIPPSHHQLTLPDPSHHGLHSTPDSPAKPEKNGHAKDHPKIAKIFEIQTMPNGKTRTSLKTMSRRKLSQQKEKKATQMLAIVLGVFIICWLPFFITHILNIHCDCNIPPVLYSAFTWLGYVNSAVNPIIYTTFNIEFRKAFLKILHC
UniProt P35462, whole entry: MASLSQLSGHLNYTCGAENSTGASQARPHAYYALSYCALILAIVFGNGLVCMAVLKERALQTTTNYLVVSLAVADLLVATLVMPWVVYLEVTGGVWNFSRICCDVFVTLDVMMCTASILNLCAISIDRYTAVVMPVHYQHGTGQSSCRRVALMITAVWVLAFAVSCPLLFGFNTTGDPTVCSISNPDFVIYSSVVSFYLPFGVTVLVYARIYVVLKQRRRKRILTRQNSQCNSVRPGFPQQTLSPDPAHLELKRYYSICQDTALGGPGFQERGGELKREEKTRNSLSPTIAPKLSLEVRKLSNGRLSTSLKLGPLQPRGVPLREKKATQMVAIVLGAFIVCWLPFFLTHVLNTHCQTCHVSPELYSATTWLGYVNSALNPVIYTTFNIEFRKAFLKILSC

According to US10577361B2, “Dopamine D3 receptor antagonists having a morpholine moiety” (Indivior UK Limited, priority 2015, dated 2020):

Each molecule was assayed against human dopamine receptor type 2, long variant (hD2L) (Homo sapiens (Human), UniProt P14416) (assay: [3H]-Spiperone binding assay at hD2 recombinant receptor (CHO-Gα16-hD2L membranes)). Settings: not given.
Procedure: [^3H]-Spiperone Binding Assay at hD2 Recombinant Receptor CHO cells stably expressing human dopamine receptor type 2, long variant (hD2L), coupled to Gα16 protein (CHO-Gα16-hD2L) were re-suspended in 20 mM HEPES, 2 mM EDTA (pH 7.4), homogenised and centrifuged at 40,000 g (20 min, 4° C.). After re-suspension, homogenization and centrifugation as above, the final pellet was re-suspended in 20 mM HEPES, 100 mM NaCl, 10 mM MgCl2, 1 mM EDTA (pH 7.4) and aliquots were kept at −80° C. [^3H]-Spiperone Binding experiments were performed in 96 deep-well polypropylene plates in 50 mM Tris/HCl, 120 mM NaCl, 5 mM KCl, 5 mM MgCl2 (pH 7.4). […] Displacement was performed in the presence of 0.08 nM [^3H]-Spiperone. The reaction was initiated by the addition of membrane suspension (2 μg of protein for CHO-hD2 membranes) and lasted for 120 min at 23° C. in a final volume of 1000 μl. Non specific binding (NSB) was determined in the presence of 0.1 μM Spiperone. The binding reaction was stopped by rapid filtration through GF/B filterplates pre-soaked in 0.5% polyetylenimmine (PEI) using a Packard cell harvester. After washing with ice-cold 0.9% NaCl, the plate was left to dry before the addition of Microscint 20 (50 μl/well, PerkinElmer). Radioactivity was counted with a TopCount (PerkinElmer). […] Saturation binding experiments were performed similar to the competition binding experiments using a radioligand concentrations ranging from 0.011 to 3.0 nM. […] Is Clozapine selective for the dopamine D4 receptor? […] Real-time analysis of dopamine: antagonist interactions at recombinant human D2long receptor upon modulation of its activation state. Brit. J.

D2 p Ki | SMILES
4.99 | Cn1c(SCCCN2CCOC(c3ccc(C(F)(F)F)cc3)C2)nnc1-c1cnccn1 (stereo not drawn) [Example 19, 4-(3-{[4-methyl-5-(pyrazin-2-yl)-4H-1,2,4-triazol-3-yl]sulfanyl}propyl)-2-[4-(trifluoromethyl)phenyl]morpholine]
4.61 | Cn1c(SCCCN2CCOC(c3ccc(C(F)(F)F)cc3)C2)nnc1-c1ccc(C(N)=O)nc1 (stereo not drawn) [Example 20, 5-{4-methyl-5-[(3-{2-[4-(trifluoromethyl)phenyl]morpholin-4-yl}propyl)sulfanyl]-4H-1,2,4-triazol-3-yl}pyridine-2-carboxamide]
4.84 | Cn1c(SCCCN2CCOC(c3ccc(C(F)(F)F)cc3F)C2)nnc1-c1ccc(C(N)=O)cc1 (stereo not drawn) [Example 35]
4.82 | Cc1ncoc1-c1nnc(SCCCN2CCOC(c3ccc(Br)cc3)C2)n1C (stereo not drawn) [Example 38, 2-(4-bromophenyl)-4-(3-{[4-methyl-5-(4-methyl-1,3-oxazol-5-yl)-4H-1,2,4-triazol-3-yl]sulfanyl}propyl)morpholine]

What follows are molecules tested against human dopamine type 3 receptor (hD3) (Homo sapiens (Human), UniProt P35462) (assay: [3H]-Spiperone binding assay at hD3 recombinant receptor (CHO-hD3 membranes)). Settings: pKi only estimated to be accurate to about ±0.3-0.5.
Procedure: [^3H]-Spiperone Binding Assay at hD3 and hD4 recombinant receptors CHO cells transiently transfected with human dopamine type 3 or 4 receptors (CHO-hD3 or CHO-hD4, respectively), were re-suspended in 20 mM HEPES, 2 mM EDTA (pH 7.4), homogenised and centrifuged at 40,000 g (20 min, 4° C.). After re-suspension, homogenization and centrifugation as above, the final pellet was re-suspended in 20 mM HEPES, 100 mM NaCl, 10 mM MgCl2, 1 mM EDTA (pH 7.4) and aliquots were kept at −80° C. [^3H]-Spiperone Binding experiments were performed in 96 deep-well polypropylene plates in 50 mM Tris/HCl, 120 mM NaCl, 5 mM KCl, 5 mM MgCl2 (pH 7.4). Compounds of invention were serially diluted in DMSO at 100 fold final concentrations in the assay (1% DMSO final in the assay). Displacement was performed in the presence of 0.3 nM [^3H]-Spiperone. The reaction was initiated by the addition of membrane suspension (4 μg and 12 μg of protein for CHO-hD3- and CHO-hD4 membranes, respectively) and lasted for 90 or 100 min (for hD3 or hD4 membranes, respectively) at 23° C. in a final volume of 500 μl. Non specific binding (NSB) was determined in the presence of 1 μM Spiperone. […] Radioactivity was counted with a TopCount (PerkinElmer). Data were analysed by non-linear regression analysis using GraphPad Prism 5.0 (GraphPad Software). […]

SMILES | D3 p Ki
Cc1ncoc1-c1nnc(SCCCN2CCO[C@H](c3ccc(C(F)(F)F)cc3)C2)n1C (single isomer, unassigned) [Example 9, (2R or 2S)-4-(3-{[4-methyl-5-(4-methyl-1,3-oxazol-5-yl)-4H-1,2,4-triazol-3-yl]sulfanyl)}propyl)-2-[4-(trifluoromethyl)phenyl]morpholine] | 7.76
Cc1ncoc1-c1nnc(SCCCN2CCOC(c3ccc(C(F)(F)F)cc3)C2)n1C (stereo not drawn) [Example 7, 4-(3-{[4-methyl-5-(4-methyl-1,3-oxazol-5-yl)-4H-1,2,4-triazol-3-yl]sulfanyl}propyl)-2-[4-(trifluoromethyl)phenyl]morpholine] | 6.9
